Source: ChEMBL document CHEMBL4808168, “The Discovery of Two Novel Classes of 5,5-Bicyclic Nucleoside-Derived PRMT5 Inhibitors for the Treatment of Cancer” (J Med Chem, 2021)

Tests used:
[1] = Selectivity for PRMT1 (unknown origin) over PRMT5 (unknown origin)
[2] = Selectivity for PRMT3 (unknown origin) over PRMT5 (unknown origin)
[3] = Selectivity for PRMT4 (unknown origin) over PRMT5 (unknown origin)
[4] = Selectivity for PRMT6 (unknown origin) over PRMT5 (unknown origin)
[5] = Selectivity for PRMT7 (unknown origin) over PRMT5 (unknown origin)
[6] = Selectivity for PRMT8 (unknown origin) over PRMT5 (unknown origin)

Measured: Selectivity ratio

Cc1ncnc2c1ccn2[C@@H]1O[C@@H]2[C@@H](Oc3ccc4cc(Br)c(N)nc4c3)CC[C@]2(O)[C@H]1O
> 4000: [1] | [2] | [3] | [4] | [5] | [6]
